Assay results published in US6121489A (priority 1997, dated 2000).

Sequences of proteins named here, by UniProt entry; tags and fusion partners are left off.
UniProt P33535, whole entry: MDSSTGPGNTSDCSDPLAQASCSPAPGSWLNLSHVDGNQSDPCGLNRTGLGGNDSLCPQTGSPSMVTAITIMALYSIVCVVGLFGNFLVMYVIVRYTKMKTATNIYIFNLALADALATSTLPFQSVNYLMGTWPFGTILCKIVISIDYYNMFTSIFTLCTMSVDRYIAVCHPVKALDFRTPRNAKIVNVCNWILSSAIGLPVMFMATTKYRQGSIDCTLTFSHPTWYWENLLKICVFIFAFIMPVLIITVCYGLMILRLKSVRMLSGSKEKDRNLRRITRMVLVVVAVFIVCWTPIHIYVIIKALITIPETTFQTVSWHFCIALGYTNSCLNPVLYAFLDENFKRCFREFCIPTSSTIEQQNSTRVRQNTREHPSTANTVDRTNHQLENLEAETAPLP

Target: T1, Mu Receptor (Rattus norvegicus, UniProt P33535)
T1 construct: radioreceptor assay using rat brain homogenates and [^3 H]-DAMGO as radioligand; tissue Harlan Bioproducts for Science (Indianapolis, Ind.); host or cells: rat brain without cerebellum, crude membrane homogenate
Format: binding

Compound	IC50 [nM]
CCN(C(=O)[C@@H](N)Cc1ccccc1)[C@H](CCCCNCc1ccc2ccccc2c1)C(=O)NCc1ccc2ccccc2c1	476
CCN(C(=O)[C@@H](N)Cc1ccccc1)[C@@H](CCCCNCc1ccc2ccccc2c1)C(=O)NCc1ccc2ccccc2c1	237
CCN(C(=O)[C@@H](N)Cc1ccccc1)[C@@H](CC(=O)N(Cc1ccc2ccccc2c1)Cc1ccc2ccccc2c1)C(=O)NCc1ccc2ccccc2c1	1110
CCN(C(=O)[C@@H](N)Cc1ccccc1)[C@H](Cc1ccc(O)cc1)C(=O)NCc1ccc2ccccc2c1 [R-4-(hydroxy)benzyl]	542
CCN(C(=O)[C@@H](N)Cc1ccccc1)[C@H](Cc1c[nH]c2ccccc12)C(=O)NCc1ccc2ccccc2c1 [R-(indol-3-yl)methyl (Boc)]	1590
CCN(C(=O)[C@@H](N)Cc1ccccc1)[C@@H](CCC(=O)O)C(=O)NCc1ccc2ccccc2c1 [S-(2-carboxy)eth-1-yl]	476
CCN(C(=O)[C@@H](N)Cc1ccccc1)[C@@H](CC(C)C)C(=O)NCc1ccc2ccccc2c1 [S-(2-methyl)prop-1-yl]	1490
CCN(C(=O)[C@@H](N)Cc1ccccc1)[C@@H](Cc1ccc(O)cc1)C(=O)NCc1ccc2ccccc2c1 [S-(4-hydroxy)benzyl (2-BrZ)]	31
CCN(C(=O)[C@@H](N)Cc1ccccc1)[C@@H](CCC(=O)N(Cc1ccc2ccccc2c1)Cc1ccc2ccccc2c1)C(=O)NCc1ccc2ccccc2c1 [S-(N,N-di(napth-2-ylmethyl)amidoethyl]	585
CCN(C(=O)[C@@H](N)Cc1ccccc1)[C@@H](Cc1cn(Cc2ccc3ccccc3c2)c2ccccc12)C(=O)NCc1ccc2ccccc2c1 [S-(N-(napth-2-ylmethyl)indol-3-ylmethyl)]	494
CCN(C(=O)[C@@H](N)Cc1ccccc1)[C@@H](Cc1ccc2ccccc2c1)C(=O)NCc1ccc2ccccc2c1 [S-(Napth-2-yl)methyl]	1210
